Assay results taken from US6423729B1, “Therapeutic or prophylactic agent for glomerulopathy” (Shionogi & Co., Ltd., priority 1997, dated 2002).

Chains of the proteins cited; added tags and fusions are not shown. Residues count along the entry.
UniProt P14780, 107-707 limits assumed: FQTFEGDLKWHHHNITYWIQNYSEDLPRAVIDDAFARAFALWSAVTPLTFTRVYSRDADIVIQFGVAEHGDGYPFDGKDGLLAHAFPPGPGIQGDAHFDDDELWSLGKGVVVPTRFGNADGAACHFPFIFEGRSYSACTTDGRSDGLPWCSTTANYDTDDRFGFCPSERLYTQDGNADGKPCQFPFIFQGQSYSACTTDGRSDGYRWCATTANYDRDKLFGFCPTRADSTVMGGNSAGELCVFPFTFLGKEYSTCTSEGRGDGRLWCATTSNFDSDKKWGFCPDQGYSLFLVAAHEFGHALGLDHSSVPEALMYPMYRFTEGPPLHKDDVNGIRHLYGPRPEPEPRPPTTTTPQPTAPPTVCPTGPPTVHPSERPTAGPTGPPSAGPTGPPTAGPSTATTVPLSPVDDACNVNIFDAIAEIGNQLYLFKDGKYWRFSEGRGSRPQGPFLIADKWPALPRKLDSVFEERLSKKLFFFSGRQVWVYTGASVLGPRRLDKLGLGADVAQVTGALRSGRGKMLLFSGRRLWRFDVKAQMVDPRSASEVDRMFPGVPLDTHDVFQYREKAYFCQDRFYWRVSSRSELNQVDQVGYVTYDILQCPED
UniProt P08253, 110-660 limits assumed: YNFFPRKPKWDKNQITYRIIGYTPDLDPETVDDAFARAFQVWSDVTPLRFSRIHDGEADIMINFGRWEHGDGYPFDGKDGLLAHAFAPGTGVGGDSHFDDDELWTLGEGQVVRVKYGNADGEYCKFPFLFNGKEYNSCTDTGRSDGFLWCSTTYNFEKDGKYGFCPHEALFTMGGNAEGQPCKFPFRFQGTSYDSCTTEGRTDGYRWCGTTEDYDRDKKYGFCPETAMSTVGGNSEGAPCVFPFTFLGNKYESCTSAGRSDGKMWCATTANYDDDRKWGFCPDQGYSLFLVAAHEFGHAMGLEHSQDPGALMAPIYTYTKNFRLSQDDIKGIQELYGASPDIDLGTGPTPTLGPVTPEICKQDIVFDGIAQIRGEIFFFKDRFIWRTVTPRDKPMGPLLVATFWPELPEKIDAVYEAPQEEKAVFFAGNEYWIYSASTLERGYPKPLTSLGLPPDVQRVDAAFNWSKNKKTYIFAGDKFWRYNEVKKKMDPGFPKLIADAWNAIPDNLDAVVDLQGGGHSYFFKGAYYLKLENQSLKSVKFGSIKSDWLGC

Experiments:
[1] = molecular target: MMP-9 (Homo sapiens, UniProt P14780); assay: Assay for inhibitory activity against MMP-9; settings: read-out: IC50 (MMP-9)
Protocol: (§1) Assay for Inhibitory Activities of MMP-9 and MMP-2
(§2) The enzymatic activity was analyzed on the method described by Knight, C. G., et al. (C. Graham Knight., Frances Willenbrock and Gillian Murphy: A novel coumarin-labelled peptide for sensitive continuous assays of the matrix metalloproteinases. FEBS Lett., 296 (1992) 263-266).
MMP-9 was purified by using a combination of procedures described in previous reports as follows. Yasunori Okada, Yukio Gonoji, Katsumi Naka, Katsuro Tomita, Isao Nakanishi, Kazushi Iwata and Taro Hayakawa: Matrix metalloproteinase 9 (92-kDa gelatinase/type IV collagenase) from HT1080 human fibrosarcoma cells. Purification and activation of the precursor and enzymic properties. J. Biol. Chem., 267 (1992) 21712-21719. […]
1.0 μl of a tested compound in DMSO is added to 48.0 μl of a reaction buffer containing 0.08 μl of an enzyme solution. […] After incubation for 60 minutes at room temperature, 100 μl of 3% (v/v) AcOH for reaction stopping and measured a fluorescence with excitation and emission at 320 nm and 405 nm, respectively (Spectrophotofluorometer; Fluoroscan Ascent (Labsystem)). […]
(§3) IC50 values were calculated by using a following formula and each fluorescence values of above four methods (A to D). […]

[2] = molecular target: MMP-2 (Homo sapiens, UniProt P08253); assay: Assay for inhibitory activity against MMP-2; settings: read-out: IC50 (MMP-2)
Protocol: as §1, §2
MMP-2 was purchased from Yagai (Yamagata pref., Japan).
MOCAc-Pro-Leu-Gly-Leu-A2pr(Dnp)-Ala-Arg-NH2 as a substrate was purchased from Petide Institute(Osaka pref., Japan). This substrate was dissolved in DMSO at a concentration of 1 mM.
Reaction buffer consists of 50 mM Tris-HCl buffer (pH 7.5) containing 10 mM CaCl2, 0.3 M NaCl, 0.005% Brij35 and 0.01% NaN3.
Assay Method of Inhibitory Activity Against MMP-2:
1.0 μl of a tested compound in DMSO is added to 48.0 μl of a reaction buffer containing 0.05 μl of an enzyme solution. After standing for 60 minutes at room temperature, the reaction was started by adding 1.0 μl of a substrate solution. After incubation for 60 minutes at room temperature, 100 μl of 3% (v/v) AcOH for reaction stopping and measured a fluorescence with excitation and emission at 320 nm and 405 nm, respectively (Spectrophotofluorometer; Fluoroscan Ascent (Labsystem)). […]
as §3

With `CCc1ccc(-c2nnn(-c3ccc(S(=O)(=O)NCC(=O)O)cc3)n2)cc1` the IC50 [1] was 94 nM and the IC50 [2] was 12.2 nM.
